Source: publication PMC8837819, “Syrbactin-class dual constitutive- and immuno-proteasome inhibitor TIR-199 impedes myeloma-mediated bone degeneration in vivo” (Bioscience Reports, 2022)

Chains of the proteins cited; added tags and fusions are not shown. Lines headed by an entry give the natural chain unless they say otherwise; changes in a name come on top.
UniProt P20618: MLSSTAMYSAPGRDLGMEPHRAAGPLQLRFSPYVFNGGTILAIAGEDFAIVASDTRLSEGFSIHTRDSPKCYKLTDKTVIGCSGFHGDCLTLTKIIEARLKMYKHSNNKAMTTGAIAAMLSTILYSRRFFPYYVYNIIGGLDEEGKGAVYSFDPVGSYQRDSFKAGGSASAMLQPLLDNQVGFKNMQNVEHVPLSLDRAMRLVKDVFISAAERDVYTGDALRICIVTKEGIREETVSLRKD
UniProt P28062: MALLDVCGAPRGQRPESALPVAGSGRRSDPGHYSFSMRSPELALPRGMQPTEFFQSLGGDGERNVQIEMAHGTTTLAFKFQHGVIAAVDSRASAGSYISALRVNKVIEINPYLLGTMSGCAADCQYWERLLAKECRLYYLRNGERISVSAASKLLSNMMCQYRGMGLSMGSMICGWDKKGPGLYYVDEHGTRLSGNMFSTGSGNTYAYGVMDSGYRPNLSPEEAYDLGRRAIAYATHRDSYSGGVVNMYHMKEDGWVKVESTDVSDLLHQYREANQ

Target: PSMB8-FLAG (immunoproteasome) (Homo sapiens, UniProt P20618+P28062)
Assay: Immunoproteasome activity assay on immunoprecipitated PSMB8-FLAG (Ac-ANW-AMC)
Conditions: 100 nM for 30 min, n=3

## COc1ccc(C[C@H](NC(=O)[C@H](C)NC(=O)CN2CCOCC2)C(=O)N[C@@H](Cc2ccccc2)C(=O)C2(C)CO2)cc1 (stereo in doubt) [ONX-0914, reference compound]
  PSMB8 activity at single concentration: inhibited PSMB8 potently
